# Test results reported in US4672068A, “Antihypertensive 1,4-dihydropyridines having a conjugated ester” (Fujirebio Kabushiki Kaisha, priority 1984, dated 1987).
# Assay: in vivo
# Details: mouse, iv
# Procedure: Acute toxicity of several derivatives was tested with male ddy mice weighed 15-30 grams by the up and down method. Each derivative was dissolved in 1.5% PVP/ethanol solution, and diluted with a saline solution. Such derivative solution was injected into the caudal vein, and the acute toxicity was determined.
smiles,measurement,value
"COC(=O)C1=C(C)NC(C)=C(C(=O)OC/C=C\c2ccccc2)C1c1cccc([N+](=O)[O-])c1 (stereo not drawn) [Example 56, Methyl (Z)-3-phenyl-2-propenyl 4-(3-nitrophenyl)-2,6-dimethyl-1,4-dihydropyridine-3,5-dicarboxylate (cis)]",LD50,> 150 mg/kg
"COC(=O)C1=C(C)NC(C)=C(C(=O)OC/C=C/c2ccccc2)C1c1cccc([N+](=O)[O-])c1 (stereo not drawn) [Example 1, cinnamyl methyl 4-(3-nitrophenyl)-2,6-dimethyl-1,4-dihydropyridine-3,5-dicarboxylate (trans)]",LD50,> 150 mg/kg
